Sampled rows, rich in hits. Any-hit rate of the full collection: about 0.92%.
Giardia killer: Giardia lamblia killing; activity change, % at 7.66 µM, hits read low; hit rate 0.15% among 340,000; Giardia lamblia trophozoite viability; in the data active means activity change below about -80%; inconclusive means between about -30% and that limit;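 further: parasites exposed to compound for two days anaerobically before the ATP read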
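Luminescent ATP signal served as the viability read-out, measured 15-30 min after adding ATP detection reagent to trophozoites that had been incubated with compounds for 48 hrs at 37 deg C anaerobically at 100 cells/well.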
B2AR arrestin: agonists driving beta-arrestin recruitment to human beta2-adrenergic receptor. P07550. beta-arrestin recruitment to beta2AR, cell-based reporter. Potency, µM (titrated, usually from 46.1 µM), most hits filed as activators. hit rate 0.02% among 330,000. AID 492947; further: nearly all actives have a fitted effect of over 65% in size
Coupling enz: inhibits coupling enzyme system, counter-screen for aldolase hits. coupling enzyme system counterscreen, AmpLite Red fluorescence. activity change, negative = inhibition, % at 58.2 µM, hits read low. hit rate 0.67% among 290,000. AID 2472; in the data active means activity change below about -30%
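First, compound is pin-transferred into glyceraldehyde-3-phosphate coupling-enzyme reagent at 57.5 uM final and held 10 min at RT. Next, substrate, coupling system and AmpLite Red are added. After 20 min RT, fluorescence (525/598 nm) is read.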
uPA generation: cell surface uPA generation inhibition. cell surface uPA generation assay, qHTS. Potency, µM (titrated, usually from 38.3 µM), most hits filed as inhibitors. hit rate 0.31% among 330,000; active means well fitted inhibition curve with a large enough effect; inconclusive means small, poorly fitted or top-dose-only effect; inactive means no such curve, though single readings can be large or run the other way; tested in mouse RAW 264.7 cells; further: nearly all actives have a fitted effect of over 55% in size
miR-21 reporter: miR-21 reporter, rising signal | HeLa miR-21 FLuc reporter, luciferase, 48 h | Potency, µM (highest dose often 38.3 µM) | 340,000 tested, under 10 active | AID 2288; active = well fitted rising curve with a large enough effect; inconclusive = small, poorly fitted or top-dose-only effect; inactive = no such curve, though single readings can be large or run the other way;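 further: miR-21 action dims this reporter so a rising signal means less miR-21 action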
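HeLa miR-21-FLuc reporter line, endogenous miR-21; 2000 cells/well in DMEM/10% FBS; compound titration up to ~40uM final, 48 h, 37 degree Celsius; luciferase detection reagent, 15 min lysis, CCD luminescence.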
GALK inhibitor: inhibitors of human galactokinase; hit rate 0.007% among 270,000; Purified GALK, Kinase-Glo residual ATP luminescence; Potency, µM (series often up to 57.5 µM), hits mostly inhibitors
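ATP-depletion format; final 35 uM ATP, 100 uM D-galactose, 5 nM enzyme; pH 8.0 HEPES/Mg2+ buffer; 60 min RT; luminescence read 10 min after detection reagent.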
Of the large screens only hits and unclear results are named; the others gave an inactive call. Unless noted, the call rests on the fitted dose curve; in most records, active means well fitted curve in the direction sought with a large enough effect; inconclusive means small, poorly fitted or top-dose-only effect, or another doubt; inactive means no such curve, though single readings can be large; an effect the other way counts as inactive or inconclusive.

N#Cc1ccc(NC(=O)c2nc(-c3ccccc3)n(-c3ccccc3)n2)cc1	Coupling enz -38
O=C(N/N=C/c1cccc(Oc2ccccc2)c1)c1ccccc1Br	Coupling enz -32
O=C(CNc1cccc2ccccc12)N/N=C/c1cccc(Oc2ccccc2)c1	Coupling enz -32
O=C(N/N=C/c1cccc(Oc2ccccc2)c1)c1cccc(Br)c1	none (no result: Coupling enz)
Cc1c(C(=O)Nc2cccc(C#N)c2)sc2nc3n(c(=O)c12)CCCCC3	none (no result: Giardia killer, B2AR arrestin, Coupling enz, uPA generation, GALK inhibitor)
COc1ccc(C(=O)OCC(=O)Nc2sccc2C(N)=O)cc1OC	none
COc1cc(C(=O)OCC(=O)Nc2sccc2C(N)=O)cc(OC)c1OC	uPA generation 3.2µM
CN1CCN(Cc2c(O)ccc3cc(Br)ccc23)CC1	none
CCN(Cc1ccncc1)Cc1c(O)ccc2cc(Br)ccc12	Coupling enz -54
Cc1ccc(NS(=O)(=O)c2ccc(Br)s2)nc1	Coupling enz -37
Cc1cc(C)nc(NS(=O)(=O)c2ccc(Br)s2)c1	Coupling enz -36
Cc1cccc(NS(=O)(=O)c2ccc(Br)s2)n1	none (no result: uPA generation)
COc1ccccc1C(=O)Nc1ccc(S(=O)(=O)N2CCc3ccccc32)cc1	none
COc1ccc(S(=O)(=O)N2CCc3ccccc32)cc1C(=O)Nc1ccc(C(N)=O)cc1	uPA generation 14µM (no result: Coupling enz, miR-21 reporter, GALK inhibitor)
COC(=O)C1=C(C(=O)OC)[C@@H]2Nc3ccccc3[C@@]23C[C@@H](C(=O)OC)N(S(=O)(=O)c2ccc(C)cc2)C3=N1	none (no result: Giardia killer, B2AR arrestin, uPA generation, miR-21 reporter, GALK inhibitor)
CCCc1ccc(-c2cc(C(=O)N3CCN(c4ccccn4)CC3)c3ccccc3n2)cc1	Giardia killer inconclusive, uPA generation 7.1µM
Cc1ccc(-c2cc(C(=O)N3CCN(c4ccc(O)cc4)CC3)c3ccccc3n2)cc1	uPA generation 10µM (no result: Coupling enz, miR-21 reporter, GALK inhibitor)
O=C(Nc1cccc(Cl)c1)Nc1ccccc1C(=O)O	uPA generation 8.9µM
COc1ccc(Cl)cc1NC(=O)Nc1ccccc1SC	none
COc1ccc(Cl)cc1NC(=O)Nc1ccccc1C(N)=O	uPA generation 3.2µM
O=Nc1c(O)c2ccccc2c2ccccc12	uPA generation 5.6µM (no result: B2AR arrestin, Coupling enz, miR-21 reporter, GALK inhibitor)
CCCc1cc(=O)[nH]c(SCC(=O)NC2CCCc3ccccc32)n1 (stereo unspecified)	Coupling enz -38
O=C(CSc1c2c(nc3ccccc13)CCC2)Nc1ccc(F)cc1	none (no result: Giardia killer, B2AR arrestin, Coupling enz, uPA generation, GALK inhibitor)
O=C(CS(=O)(=O)c1ccc(F)cc1)Nc1nnc(-c2cccs2)o1	none (no result: Coupling enz, miR-21 reporter, GALK inhibitor)
O=C(CCS(=O)(=O)c1ccc(F)cc1)Nc1nnc(-c2cccs2)o1	uPA generation 10µM (no result: Coupling enz, miR-21 reporter, GALK inhibitor)
Cc1ccc2c(c1)C(=C(C#N)C#N)C(=O)N2CCN1CCOCC1	Coupling enz -36, uPA generation inconclusive
Cc1ccc2c(c1)C(=C(C#N)C#N)C(=O)N2CCN1CCCCC1	none
N#CC(C#N)=C1C(=O)N(CCN2CCOCC2)c2ccccc21	Coupling enz -36
COc1ccc2c(c1)O[C@@H](c1ccc3c(c1)OCO3)[C@H](OC(=O)NS(=O)(=O)c1ccc(C)cc1)C2=O	none (no result: Giardia killer, B2AR arrestin, uPA generation, miR-21 reporter, GALK inhibitor)
CCC(=O)N1CCc2cc(S(=O)(=O)Nc3cc(C)ccc3OC)ccc21	none (no result: Giardia killer, B2AR arrestin, Coupling enz, uPA generation, GALK inhibitor)
CS(=O)(=O)c1cc([N+](=O)[O-])c(Sc2nc3ccccc3[nH]2)c([N+](=O)[O-])c1	Coupling enz -41, miR-21 reporter inconclusive (no result: uPA generation)
Cc1onc(-c2ccccc2Cl)c1C(=O)Nc1nnc(C2CCCCC2)s1	none (no result: B2AR arrestin, Coupling enz, uPA generation, miR-21 reporter, GALK inhibitor)
Clc1ccc2c(N/N=C/c3cccnc3)ccnc2c1	none
Cc1ccc(/C=N/Nc2ccnc3cc(Cl)ccc23)c(C)c1	Giardia killer -88
Clc1ccc2c(N/N=C/c3ccc(Br)cc3)ccnc2c1	Giardia killer -96
COCCNC(=O)CSc1nc2ccc(N3CCOCC3)cc2c(=O)n1CCc1ccccc1	Coupling enz -44
CCCCNC(=O)CSc1nc2ccc(N3CCOCC3)cc2c(=O)n1CCc1ccccc1	Coupling enz -37
CCOC(=O)CSc1nc2ccc(N3CCOCC3)cc2c(=O)n1Cc1ccccc1	Coupling enz -32
O=C(CSc1nc2ccccc2c(=O)n1CCC(=O)N1CCN(c2ccccc2)CC1)NCC1CCCO1 (stereo unspecified)	none
COCCNC(=O)CSc1nc2ccccc2c(=O)n1CCC(=O)N1CCN(c2ccccc2)CC1	none
O=C(CSc1nc2ccc(N3CCOCC3)cc2c(=O)n1CCc1ccccc1)NCC1CCCO1 (stereo unspecified)	Coupling enz -31
Cc1noc(C)c1-c1ccc2ncnc(NCc3cccc(Cl)c3)c2c1	none (no result: Giardia killer, B2AR arrestin, uPA generation, miR-21 reporter, GALK inhibitor)
CCc1ccc(NC(=O)CCc2c(C)nn(-c3ccc(N4CCCC4)nn3)c2C)cc1	none (no result: Giardia killer, B2AR arrestin, Coupling enz, uPA generation, GALK inhibitor)
O=C(Cn1c(=O)n(-c2ccccc2)c(=O)c2sc3ccccc3c21)NC1CCCC1	none (no result: Giardia killer, B2AR arrestin, Coupling enz, uPA generation, GALK inhibitor)
CCc1cccc2c(-c3ccccc3)nc(SCC(=O)Nc3ccccc3OC)nc12	none (no result: Giardia killer, B2AR arrestin, Coupling enz, uPA generation, GALK inhibitor)
CCCCn1c(SCC(=O)NCCOC)nc2ccc(N3CCOCC3)cc2c1=O	Coupling enz -37
COc1cccc(-n2cc(C(=O)Oc3cccc(C(F)(F)F)c3)c3ccccc3c2=O)c1	none (no result: Giardia killer, B2AR arrestin, Coupling enz, uPA generation, GALK inhibitor)
c1ccc(-c2noc(-c3ccc4ccccc4c3)n2)nc1	Giardia killer -93, miR-21 reporter inconclusive
CCOCCCN(Cc1ccco1)C(=O)c1cc2c(s1)-c1c(C)cccc1OC2	none (no result: Giardia killer, B2AR arrestin, Coupling enz, uPA generation, GALK inhibitor)
O=C(Nc1ccc2[nH]ccc2c1)c1ccc(F)cc1	Giardia killer -83, uPA generation 0.89µM
O=C(Nc1ccc2[nH]ccc2c1)c1ccccc1	Giardia killer inconclusive
Cc1ccccc1C(=O)N1CCN(c2ccc(NC(=O)c3ccc([N+](=O)[O-])o3)cc2)CC1	Giardia killer -91
CC(C)C(=O)N1CCN(c2ccc(NC(=O)c3ccc([N+](=O)[O-])o3)cc2)CC1	Giardia killer inconclusive
O=C(Nc1ccc(N2CCN(C(=O)c3ccccc3)CC2)cc1)c1ccc([N+](=O)[O-])o1	Giardia killer -100, uPA generation inconclusive
O=C1C(Nc2ccc(O)cc2)=C/C(=N/S(=O)(=O)c2cccs2)c2ccccc21	Coupling enz -37, miR-21 reporter inconclusive
CCc1ccc(S(=O)(=O)/N=C2/C=C(Sc3ncn[nH]3)C(=O)c3ccccc32)cc1	Coupling enz -58, miR-21 reporter inconclusive
O=C1c2ccccc2C(=O)N1CCSc1ncn[nH]1	none
CCc1ccc(S(=O)(=O)/N=C2\C=CC(=O)c3ccccc32)cc1	Coupling enz -50 (no result: Giardia killer, uPA generation)
Cc1ccc(NC2=C/C(=N\S(=O)(=O)c3cccs3)c3ccccc3C2=O)c(C)c1	miR-21 reporter inconclusive
Cc1ccc(Cl)cc1NC1=C/C(=N\S(=O)(=O)c2cccs2)c2ccccc2C1=O	Coupling enz -46, miR-21 reporter inconclusive
COc1ccc(-c2nc3c(c4c2C[C@H](c2ccccc2)OC4)CN(S(=O)(=O)c2ccc(Cl)c4nonc24)CC3)c(C)c1	none (no result: Giardia killer, B2AR arrestin, uPA generation, miR-21 reporter, GALK inhibitor)
COc1ccc(NC(=O)c2ccco2)cc1NC(=O)COc1cc(C)ccc1C(C)C	none (no result: Giardia killer, B2AR arrestin, Coupling enz, uPA generation, GALK inhibitor)
